How the values were obtained:
[1] = biological target: human RBC (human) (UniProt Q08722); assay: flow cytometry on human red blood cells, PE goat anti-human IgG Fc secondary, MFI [lower left panel]
[2] = biological target: human RBC (human) (UniProt Q08722); assay: flow cytometry on human red blood cells, PE goat anti-human IgG Fc secondary, MFI [upper left panel]
[3] = biological target: human RBC (human) (UniProt Q08722); assay: flow cytometry on human red blood cells, PE goat anti-human IgG Fc secondary, MFI [upper right panel]
[4] = biological target: human CD47 on CCRF-CEM cells (human) (UniProt Q08722); assay: flow cytometry on CCRF-CEM cells, MFI curve
[5] = biological target: human RBC (human) (UniProt Q08722); assay: flow cytometry on human red blood cells, PE goat anti-human IgG Fc secondary, MFI [lower right panel]
[6] = biological target: human CD47 on CCRF-CEM cells (human) (UniProt Q08722); assay: flow cytometry competition on CCRF-CEM cells; blocked ligand hSIRPα-mFC, detected with PE goat anti-mouse IgG Fc

## Hu5F9-G4 (antibody)
[1]
  EC50 (read off the curve): 0.09 µg/mL
[2]
  EC50 (read off the curve): 0.07 µg/mL
[3]
  EC50 (read off the curve): 0.09 µg/mL
[4]
  EC50: 0.729 nM
[5]
  EC50 (read off the curve): 0.09 µg/mL
[6]
  IC50 (read off the curve): 0.5 nM

Reference: patent US20230312709A1
